From ChEMBL document CHEMBL1135277, “Beta-carbolines as specific inhibitors of cyclin-dependent kinases” (Bioorg Med Chem Lett, 2002)

Amino acid sequences for entries named in this document (tags omitted).
UniProt Q00535, whole entry: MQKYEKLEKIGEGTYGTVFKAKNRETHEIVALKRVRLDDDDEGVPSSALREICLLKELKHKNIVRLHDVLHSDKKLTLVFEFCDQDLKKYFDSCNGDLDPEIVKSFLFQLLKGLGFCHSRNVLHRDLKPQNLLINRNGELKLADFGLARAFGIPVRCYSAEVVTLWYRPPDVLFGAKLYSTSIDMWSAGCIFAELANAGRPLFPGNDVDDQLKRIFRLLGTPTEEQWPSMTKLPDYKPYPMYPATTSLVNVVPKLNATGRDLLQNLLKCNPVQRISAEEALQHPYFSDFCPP

Target: Cyclin-dependent kinase 5/CDK5 activator 1 (Homo sapiens, UniProt Q00535)
Experiment: Inhibition of Cyclin-dependent kinase 5-p35nck5a
Type: protein-complex assay

COc1ccc2c(c1)[nH]c1c(C)nccc12 [HARMINE]
IC50: 21 µM
